The values that follow come from article PMC3646032 (PLoS ONE, 2013).

Chains of the proteins cited; added tags and fusions are not shown. Residues count along the entry.
UniProt P9WPY3, 2-176: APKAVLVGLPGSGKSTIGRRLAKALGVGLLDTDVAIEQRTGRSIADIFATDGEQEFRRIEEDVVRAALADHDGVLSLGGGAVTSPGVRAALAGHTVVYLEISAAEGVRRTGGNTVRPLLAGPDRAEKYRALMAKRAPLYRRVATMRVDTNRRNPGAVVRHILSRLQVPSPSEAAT

“And” between values parts separate entries of the source, which are not always exact repeats. Equal values may be shown once.

For assay [1], the target named is M. tuberculosis Shikimate Kinase (MtSK) (Mycobacterium tuberculosis, UniProt P9WPY3). Type of assay: biochemical. Conditions: pH 7.6.
Assay [2] addresses T1, MtSK (Mycobacterium tuberculosis, UniProt P9WPY3). Description: Equilibrium fluorescence spectroscopy, intrinsic tyrosine fluorescence. It is filed as binding. The conditions noted are these: fluorescence quench, 25°C (298.15 K), Tris-HCl pH 7.6, free MtSK; read-out: equilibrium dissociation constant (K D). As for the experimental part:
MtSK intrinsic protein fluorescence measurements were carried out to both determine the order of substrate/product addition/dissociation on/from the catalytic site and distinguish the enzyme kinetic mechanism. As MtSK has no tryptophan residues, changes in protein tyrosine fluorescence (the polypeptide chain of MtSK has 3 Tyr residues) upon ligand binding were monitored. Fluorescence measurements were carried out in a RF-5301 PC Spectrofluorophotometer (Shimadzu) at 25°C. Excitation wavelength was 280 nm and emission spectra were collected from 300 to 500 nm. The maximum values of fluorescence intensity at 315 nm values were plotted as a function of increasing ligand concentration. Excitation and emission slits were 5 nm. As protein tyrosine typically has a low sensitivity (low molar absorption coefficient and low fluorescence quantum yield), MtSK concentration for binding experiments was 10 µM. […] However, owing to a large inner filter effect, ATP and ADP binding to free MtSK could not be determined by fluorescence spectroscopy.
Equilibrium fluorescence spectroscopy data were fitted to Eq. 4, in which F is the observed fluorescence, F 0 is the initial fluorescence, F ∞ is the maximum change in fluorescence at saturating ligand (L) concentration, and K D represents the equilibrium dissociation constant for protein:ligand binary complex formation. […]

Assay [3] deals with T1, MtSK. The conditions noted are these: cited from earlier work.

Take `O=C(O)C1=C[C@@H](O)[C@@H](O)[C@H](O)C1` [SKH, [3R-(3α,4α,5β)]3,4,5-trihydroxy-1-cyclohexene-1-carboxylic acid]: in assay [1], the “K SKH (Michaelis constant)” value is 650 µM and 650 (±28) µM. Besides, the Kd in assay [2] is 113 µM. For the same molecule, in assay [3], the “K SKH” value is on record as 410 (±20) µM.
